Apparent affinities of Ab-14 variants for a coronavirus HR2 peptide

Source: Li et al. 2023 (doi:10.1038/s41467-023-39022-2), MIT Lincoln Laboratory and A-Alpha Bio; data file from the FLAb repository.

The target is the same throughout: PDVDLGDISGINAS, from the HR2 region of SARS-CoV-2 spike.

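Phage display of a naive human antibody library on the peptide gave the parent. Designed CDR sequences, proposed from the first random library and measured here. Several design methods are mixed in this list. Affinity was read by AlphaSeq, a pooled yeast mating assay with surface-displayed partners. After mating in shaken culture at 30 °C for 16 h, diploids were selected and their barcode pairs sequenced. The ratio of observed to expected reads was calibrated, replicate by replicate, on BCL2-family standards whose Kd was known from biolayer interferometry. There are six technical replicates.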

Parent scFv Ab-14: VH joined to VL by the linker GGGGSGGGGSGGGGS. Changes lie in the light chain CDRs alone.
VH: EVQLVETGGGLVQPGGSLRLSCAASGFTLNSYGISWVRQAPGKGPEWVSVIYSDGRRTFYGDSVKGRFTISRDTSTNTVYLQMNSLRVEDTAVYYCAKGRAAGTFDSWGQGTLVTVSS
VL: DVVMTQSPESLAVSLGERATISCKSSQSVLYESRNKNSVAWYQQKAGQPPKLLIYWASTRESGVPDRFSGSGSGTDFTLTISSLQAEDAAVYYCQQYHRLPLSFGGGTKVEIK

Each variant is given by its three light chain CDRs, as the data file delimits them; those of the parent are KSSQSVLYESRNKNSVA, WASTRES, QQYHRLPLS. Scale: log10 of Kd in nM, estimated from mating counts; low values are strong binders. The mean shown is taken over the replicates in which the pair was detected. An entry "nd" has no value in the source: the pair was not observed among the diploids in any replicate. This suggests poor binding but is not conclusive. The authors' rule: three or more of the six replicates give a measured affinity, fewer mean a poor binder.

CDR-L1,CDR-L2,CDR-L3,mean log10 Kd (nM),seen in
LLSGMVEEQITRQNNIA,EGEFRDM,QQYNRLPLS,0.57,6 of 6
KSSESELYESRNKNSVA,EASTRES,QQYHRLPLS,0.07,6 of 6
KLSVSYLFEQLEKNSIA,ENSTREE,QHYHRLPLS,nd,0 of 6
QMSANFLWPGNGRQSVA,EISTAME,QQYSHLPLS,1.88,6 of 6
KSSQSVLYESEDKNSVA,WASTRES,QEYHRLPLS,2.58,2 of 6
TISQLMNMGQFAINSVA,QASIRNM,QQYDRLPLA,1.60,6 of 6
KSSQSVLYESRNKNSVA,WASTRES,QQYHELPLS,nd,0 of 6
KSSQSFLYESRNKNSVA,SASTRES,QQYHRLPLS,0.47,6 of 6
KLLQNVWTEGRNRNNVA,HMDMRED,QQYWRLPLS,0.34,6 of 6
KFSQSVLYESRDKNSVA,NASTRES,QWYHRLPLS,1.99,5 of 6
KSSQSVLYESRNKNSVA,WASSRES,QQVHRLPLS,nd,0 of 6
KFMMSGEYQMHEQNNIA,QGNIKFV,QQYFRLPIS,0.81,6 of 6
KLGSMTAIESRNLNSVA,QMDTRES,QQYHRLPLS,1.19,6 of 6
NMNVGANFGKNQEQAIA,DVEDRES,QQYARLPLT,0.24,6 of 6
KFSQSVLYESRNKNGVA,NASTRES,QQYHRLPLS,0.31,6 of 6
AIRQMTEEAAQNSNSIA,EEDRVTE,QQYSKLPLT,1.35,6 of 6
KNDISHLGESRNKNAVA,NASTREE,QQYHRLPLS,-0.10,6 of 6
KFSQSQLYESRTSNRVA,NASTRES,QQYHRLPLS,0.12,6 of 6
MLSQMWGVGSKAKNSVA,QASMRFN,QQYDRLPLI,2.57,5 of 6
TISQVMNTLTRHGNNVA,DLAERED,QQYFRLPLS,0.51,6 of 6
KIDQWKLGESRNKNSVA,DASQRMS,QQYHRLPLS,-0.54,6 of 6
IISQVDGYESRNKNSIA,DQSTRGS,QQYDRLPLS,0.83,6 of 6
TISTSALYESINKNSVA,ELSTRGS,QQYDRLPLS,1.95,6 of 6
KFSQQMLYESRMKNPVA,NASQREQ,QQYHRLPLS,0.20,6 of 6
NLGFVDDNDNRGMMSVA,DVNTVGE,QQYNRLPLA,0.53,6 of 6

Second part, the sequence after the result:

mean log10 Kd (nM),seen in,CDR-L1,CDR-L2,CDR-L3
0.56,6 of 6,KLEQSEQYESRNKNSVA,NASTRES,QQYHRLPLS
0.07,6 of 6,KLEQSEEYESRNKNSVA,NASQRES,QQYHRLPLS
1.79,1 of 6,KSQQSVLYESRNHNSVA,TASTRCS,QQYHRLMLS
0.19,6 of 6,KYYPSYLYESRNKNSVA,EASTRES,QQYHRLPLS
1.19,6 of 6,KSSQSGLYESRNKNSVA,WASTRAS,QQYDRLPLS
1.38,6 of 6,IISQVDAYESRVKNSIA,DQSTRGS,QQYDRLPLS
-0.12,6 of 6,HLSWKVLYESRNKNSVA,NASTRES,QQYHRLPLS
-0.13,6 of 6,KLSQGWLYESREKNSVA,NASQREH,QQYHRLPLS
1.47,6 of 6,KVEQGVLDESRNDNSVA,WASTREG,QQYHRLPLS
0.20,6 of 6,KQSQSVLMESRNSNSVA,DASTRES,QQYVRLPLS
nd,0 of 6,NLTDAMASWTGDRHSIA,DKTVTAP,QQYSRLPIT
-0.41,6 of 6,KLPQGVLYESRNKNSVA,GASLRES,QQYHRLPLS
nd,0 of 6,MLSEVLHMLGVQKNSIA,DLVLRAN,QQYHRLPLQ
1.58,7 of 30,HISQSVLYESRNKNSVA,WASTRES,AQYMRLPPS
1.00,5 of 6,SIQFYTENFAEWGQSIA,DVSATTA,QQYHRLPLA
0.36,6 of 6,HLGGLMTWEEKARNSVA,QQNTRAE,QQYHRLPLS
-0.41,6 of 6,KLAQSDLYESRNFNNVA,AASTRES,QQYHRLPLS
0.35,6 of 6,RIRESMGYSHEGRRNIA,QAQIREI,QQYSQLPLF
0.29,6 of 6,KLQQSHLYESRNKNSVA,SASTRLS,QQYHRLPLS
0.03,6 of 6,KISMLQRYESQAKNSIA,EMSRREN,QQYHRLPLS
0.70,6 of 6,MFSQGVMVGWLTRNSVA,NSSTREN,QQYHRLPLS
1.29,6 of 6,KVSQSWLMESRNKNSVA,NASTRES,QQYHRLPLS
-0.01,6 of 6,KSGQGVLYESRNKNSVA,DASTRES,QQYHRLPLS
1.47,5 of 6,RLLAQNLINMDKLNSIA,EQSVHYQ,QQYGRLPLT
0.75,6 of 6,KLDQSGLYGSRNKNSVA,EASYRES,QQYHRLPLY

The closing 7 entries, repeated:

CDR-L1,CDR-L2,CDR-L3,mean log10 Kd (nM),seen in
KLQQSHLYESRNKNSVA,SASTRLS,QQYHRLPLS,0.29,6 of 6
KISMLQRYESQAKNSIA,EMSRREN,QQYHRLPLS,0.03,6 of 6
MFSQGVMVGWLTRNSVA,NSSTREN,QQYHRLPLS,0.70,6 of 6
KVSQSWLMESRNKNSVA,NASTRES,QQYHRLPLS,1.29,6 of 6
KSGQGVLYESRNKNSVA,DASTRES,QQYHRLPLS,-0.01,6 of 6
RLLAQNLINMDKLNSIA,EQSVHYQ,QQYGRLPLT,1.47,5 of 6
KLDQSGLYGSRNKNSVA,EASYRES,QQYHRLPLY,0.75,6 of 6

Empty control strains, which show no peptide, gave a signal in 4% of pairings with all light chain designs; the median was 2.64 and 95% of these signals were weaker than 1.59. No background was subtracted. The range of this assay differs from that of the first round, and the authors advise against merging the two. Where one sequence has several entries in the source, the replicates are pooled.